Experimental data reported in US10941132B2, “Pyrazole derivatives” (HUA MEDICINE (SHANGHAI) Ltd., priority 2016, dated 2021).

Amino acid sequences for entries named in this document (tags omitted). Residues count along the entry.
UniProt P31424, 21-1203 limits assumed: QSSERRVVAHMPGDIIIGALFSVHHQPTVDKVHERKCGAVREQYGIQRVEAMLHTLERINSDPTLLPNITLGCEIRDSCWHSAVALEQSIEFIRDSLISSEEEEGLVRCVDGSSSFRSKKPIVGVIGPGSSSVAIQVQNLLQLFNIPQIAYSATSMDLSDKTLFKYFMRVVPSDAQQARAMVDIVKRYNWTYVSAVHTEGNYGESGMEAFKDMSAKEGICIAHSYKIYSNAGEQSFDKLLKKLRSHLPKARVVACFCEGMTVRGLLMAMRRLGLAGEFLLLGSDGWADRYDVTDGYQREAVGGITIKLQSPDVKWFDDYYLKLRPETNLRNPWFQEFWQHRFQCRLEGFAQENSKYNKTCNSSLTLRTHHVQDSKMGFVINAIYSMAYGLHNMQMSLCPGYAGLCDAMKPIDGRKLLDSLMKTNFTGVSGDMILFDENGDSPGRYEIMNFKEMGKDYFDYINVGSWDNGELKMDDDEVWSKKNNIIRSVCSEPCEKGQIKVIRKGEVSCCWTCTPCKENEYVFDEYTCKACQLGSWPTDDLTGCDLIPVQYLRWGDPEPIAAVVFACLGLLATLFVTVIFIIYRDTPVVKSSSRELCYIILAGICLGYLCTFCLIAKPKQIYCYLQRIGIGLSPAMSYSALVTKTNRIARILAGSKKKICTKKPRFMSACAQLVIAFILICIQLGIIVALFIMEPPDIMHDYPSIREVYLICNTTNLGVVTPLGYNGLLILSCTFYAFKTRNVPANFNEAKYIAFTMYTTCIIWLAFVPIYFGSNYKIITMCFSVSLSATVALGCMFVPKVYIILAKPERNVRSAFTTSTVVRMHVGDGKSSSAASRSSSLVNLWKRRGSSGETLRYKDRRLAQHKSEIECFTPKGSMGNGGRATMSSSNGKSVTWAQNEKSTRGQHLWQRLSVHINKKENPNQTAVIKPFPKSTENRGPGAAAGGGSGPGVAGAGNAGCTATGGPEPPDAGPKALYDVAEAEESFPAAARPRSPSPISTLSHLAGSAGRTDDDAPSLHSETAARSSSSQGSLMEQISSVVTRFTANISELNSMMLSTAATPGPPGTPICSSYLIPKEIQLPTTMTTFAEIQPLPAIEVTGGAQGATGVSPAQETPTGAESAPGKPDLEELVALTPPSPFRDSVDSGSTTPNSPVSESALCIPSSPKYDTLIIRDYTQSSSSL

Target: recombinant rat mGluR5 (Rattus norvegicus, UniProt P31424)
Experiment: Functional calcium flux assay (FLIPR), antagonist evaluation against glutamate-evoked [Ca2+]i increase
Assay type: cell-based
Settings: read-out: IC50 value (FLIPR assay); Table 1; HEK293 cells stably expressing recombinant rat mGluR5; 15 min incubation of test compound, then submaximal glutamate
Method: Functional Calcium Clux Assay Methodology
For functional assays, HEK293 cells stably expressing recombinant rat mGluR5 were seeded in 384-well plates and dye loaded using Fluo-8. Cells were then washed to remove the un-incorporated dye. Antagonist evaluation was performed following a 15 min incubation of the test compound followed by the addition of submaximal concentration of glutamate. Intracellular calcium ([Ca^2+]i) measurements were performed using a fluorometric imaging plate reader (FLIPR, Molecular Devices). The glutamate-evoked increase in [Ca^2′]i in the presence of the test compounds was compared to the response to glutamate alone (the positive control). Antagonist inhibition curves were fitted with a 4-parameter logistic equation giving IC50 values, and Hill coefficients using an iterative nonlinear curve fitting algorithm.
The tables below provide IC50 data in this assay. In the activity column, A=IC50>1,000 and ≤5,000 nM; B=IC50>500 and ≤1,000 nM and C=IC50≤500 nM.

With COCCOc1c(C#Cc2ncccn2)cnn1-c1ccc(F)cc1 as the molecule, how does the IC50 read?
The IC50 was 1 to 5 µM.
